The values below are quoted from earlier work in publication PMC7419559 (Scientific Reports, 2020).

The chains behind the UniProt entries cited, without tags or fusion partners. Where a name states a change or a piece, a line headed by the entry shows the natural chain unless it says otherwise.
UniProt Q9Y5N1: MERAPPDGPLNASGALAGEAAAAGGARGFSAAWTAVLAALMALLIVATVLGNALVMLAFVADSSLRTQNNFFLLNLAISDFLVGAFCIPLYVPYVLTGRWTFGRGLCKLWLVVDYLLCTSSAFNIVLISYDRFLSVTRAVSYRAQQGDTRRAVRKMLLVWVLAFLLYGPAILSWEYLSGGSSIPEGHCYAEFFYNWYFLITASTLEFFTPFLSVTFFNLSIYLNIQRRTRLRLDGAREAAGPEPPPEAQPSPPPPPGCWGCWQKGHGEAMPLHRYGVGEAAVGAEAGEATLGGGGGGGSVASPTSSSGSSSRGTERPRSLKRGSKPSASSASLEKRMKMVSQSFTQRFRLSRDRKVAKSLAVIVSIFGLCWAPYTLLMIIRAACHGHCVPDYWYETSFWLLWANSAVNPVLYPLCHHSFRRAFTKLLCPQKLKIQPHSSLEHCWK

The data set deals with T1, human isoform of histamine H3 receptor (hH3R) (Homo sapiens, UniProt Q9Y5N1).
T1 construct: expressed in transfected cells; host or cells: HEK-293T
The note with it: [3H]Nα-methylhistamine displacement; mean [95% CI]; read-out: hH3R affinity Ki [CI95%]; cited from earlier work.

In general, Ki refers to a measure of affinity in units of concentration, obtained from inhibition or displacement. Take `O=C(c1ccc(OCCCc2cnc[nH]2)cc1)C1CC1` [Ciproxifan]: the Ki is 320 nM.
